# Test results reported in PMC6585789 (American Journal of Hematology, 2017).
# System: FLT3‐ITD–mutated AML
# Test: Efficacy assessments: relapse, survival, treatment duration and disposition
# Format: in vivo, human
compound,measurement,setting,value
"CC(C)(C)c1cc(NC(=O)Nc2ccc(-c3cn4c(n3)sc3cc(OCCN5CCOCC5)ccc34)cc2)no1.Cl.Cl [quizartinib, N‐(5‐tert‐butyl‐isoxazol‐3‐yl)‐N′‐{4‐[7‐(2‐morpholin‐4‐yl‐ethoxy)imidazo[2,1‐b][1, 3]benzothiazol‐2‐yl]phenyl}urea dihydrochloride]",Difference in OS between treatment groups,40 mg/d vs 60 mg/d,no significant difference
same,Subjects alive at end of study,13 subjects,77%
same,Subjects surviving >2 years (104 weeks),13 subjects,31%
same,Subjects surviving ≥50 weeks,13 subjects,69%
same,Subjects who discontinued due to disease progression,13 subjects,8%
same,Subjects who had died at the end of the study,"13 subjects, 1 disease progression, 1 peritoneal hemorrhage, 1 unknown causes",3
same,Subjects with relapse,"13 subjects, relapse in the first cycle",8%
same,Outcome of transplant: Continued CR,"starting dose 40 mg, N = 7",6 n
same,Outcome of transplant: Relapse,"starting dose 40 mg, N = 7",1 n
same,Outcome of transplant: Continued CR,"starting dose 60 mg, N = 6",6 n
same,Outcome of transplant: Continued CR,total N = 13,12 (92) n (%)
same,Outcome of transplant: Relapse,total N = 13,1 (8) n (%)
